Test results published in ChEMBL document CHEMBL1140296, “Anilinodialkoxyquinazolines: screening epidermal growth factor receptor tyrosine kinase inhibitors for potential tumor imaging probes” (J Med Chem, 2005).

Chains of the proteins cited; added tags and fusions are not shown.
UniProt P00533, whole entry: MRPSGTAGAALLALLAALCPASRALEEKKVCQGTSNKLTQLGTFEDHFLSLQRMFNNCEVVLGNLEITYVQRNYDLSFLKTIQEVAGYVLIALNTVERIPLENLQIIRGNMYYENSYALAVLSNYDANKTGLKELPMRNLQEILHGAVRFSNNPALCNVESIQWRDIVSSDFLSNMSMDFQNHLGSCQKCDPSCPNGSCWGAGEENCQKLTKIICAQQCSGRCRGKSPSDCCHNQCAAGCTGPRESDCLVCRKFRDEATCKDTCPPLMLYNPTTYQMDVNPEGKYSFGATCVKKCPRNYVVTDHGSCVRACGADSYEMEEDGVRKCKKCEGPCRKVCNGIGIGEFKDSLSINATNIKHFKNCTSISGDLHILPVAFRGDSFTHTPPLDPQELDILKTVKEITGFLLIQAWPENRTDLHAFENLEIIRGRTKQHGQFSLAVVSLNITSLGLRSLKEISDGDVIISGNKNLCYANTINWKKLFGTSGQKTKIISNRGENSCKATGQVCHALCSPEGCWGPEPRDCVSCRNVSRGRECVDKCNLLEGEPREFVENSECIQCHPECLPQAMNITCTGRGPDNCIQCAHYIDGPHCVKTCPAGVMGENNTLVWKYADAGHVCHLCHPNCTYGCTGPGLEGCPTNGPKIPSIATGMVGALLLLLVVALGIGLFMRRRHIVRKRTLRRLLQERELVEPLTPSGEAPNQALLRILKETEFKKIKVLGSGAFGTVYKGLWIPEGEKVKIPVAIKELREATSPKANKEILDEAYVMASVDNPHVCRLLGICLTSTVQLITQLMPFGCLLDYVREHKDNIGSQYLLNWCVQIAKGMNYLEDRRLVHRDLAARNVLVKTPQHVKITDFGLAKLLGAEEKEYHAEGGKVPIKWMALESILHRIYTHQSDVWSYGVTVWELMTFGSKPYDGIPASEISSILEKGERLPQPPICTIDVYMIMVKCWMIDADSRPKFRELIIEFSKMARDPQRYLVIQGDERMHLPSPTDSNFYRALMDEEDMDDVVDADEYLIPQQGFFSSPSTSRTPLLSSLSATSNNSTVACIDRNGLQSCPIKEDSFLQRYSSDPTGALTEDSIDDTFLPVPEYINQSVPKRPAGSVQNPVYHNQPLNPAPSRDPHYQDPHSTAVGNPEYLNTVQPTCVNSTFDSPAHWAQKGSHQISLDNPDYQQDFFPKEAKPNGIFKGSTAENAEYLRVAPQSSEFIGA

Experiments:
[1] = biological target: T1, Epidermal growth factor receptor (Homo sapiens, UniProt P00533); test: Displacement of [125I]4-(3-iodoanilino)-6,7-dimethoxyquinazoline from EGFR tyrosine kinase in human A431 cell membranes; design: species or system A-431
[2] = biological target: T1, Epidermal growth factor receptor; test: Inhibition of human EGFR tyrosine kinase phosphorylation expressed in mouse BaF3 cells; type: functional, cell-based
[3] = system: MCF7; test: Inhibition of DNA synthesis in EGF-independent human MCF7 cells assessed as 3H]thymidine incorporation; type: functional, cell-based; details: MCF7, 48 h

| SMILES | IC50 [1] [nM] | IC50 [2] [nM] | IC50 [3] [nM] |
| --- | --- | --- | --- |
| COc1cc2ncnc(Nc3cccc(F)c3)c2cc1OC | 31.9 | 6.3 | 1960 |
| COc1cc2ncnc(Nc3cccc(Cl)c3)c2cc1OC | 1.26 | 0.8 | 1980 |
